Results published in PubChem BioAssay AID720647 (Broad Institute, 2013).
The entries are a selection whose mix differs from that of the whole data set. Calls of active or inactive are those of the source.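 The calls were made as follows: active = drop in luminescence signal, shown as inhibition above about 50% in the replicate tests (limit read from the data, passing the limit was not always enough); inconclusive = probably only some replicates passing the limit; inactive = the rest.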

tested on: Drosophila bursicon receptor LGR2 (rickets); assay: inhibitors of bursicon-induced LGR2 CRE-luciferase signal, primary screen, cell-based, HEK293, CRE-luciferase reporter, bursicon stimulation (AID 720647); conditions: bursicon-stimulated, 4 h, at 9.99 µM, stronger effect = higher value;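 also: agonist challenge used bursicon conditioned medium at about half maximal strength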

SMILES	inhibition
Cc1cc(C)cc(N(C(=O)c2ccccc2)C2CCN(C(=O)OC(C)(C)C)CC2)c1	inactive: 13.2%
O=C(NCC1(N2CCCCC2)CCCCC1)c1ccc(Cl)nc1	inactive: -4.08%
O=c1[nH]c2ccccc2n1C1CCN(C(c2ccccc2OC(F)(F)F)c2nnnn2C2CCCCC2)CC1 (centres undefined)	inactive: 28.1%
COc1ccc(Cl)cc1C(=O)NCC1(N2CCOCC2)CCCCC1	inactive: -9.26%
N#CC1(Nc2ccccc2)CCN(Cc2ccccc2)CC1	inactive: 7.56%
O=C(NCC1(N2CCCCC2)CCCCC1)c1ccc(Cl)s1	inactive: -2.43%
O=c1[nH]c2ccccc2n1C1CCN(C(c2cc3ccccc3o2)c2nnnn2C2CCCCC2)CC1 (centres undefined)	inactive: 16.9%
O=C(OC1CN2CCC1CC2)C1c2ccccc2Oc2ccccc21 (centres undefined)	inactive: -5.59%
CCCCn1nnnc1C(c1ccc(OC)cc1)N1CCC(n2c(=O)[nH]c3ccccc32)CC1 (centres undefined)	inactive: 9.89%
CCOC(=O)N1CCC(Nc2ccc(OC)cc2)CC1	inactive: 24.2%
CC(C)(C)OC(=O)N1CCC(N(C(=O)c2ccccc2)c2ccc(F)cc2)CC1	inactive: 6.98%
COc1ccc(C(=O)NCC2(N3CCCCC3)CCCCC2)c(OC)c1OC	inactive: 10.9%
CCC(c1nnnn1C1CCCC1)N1CCC(n2c(=O)[nH]c3ccccc32)CC1 (centres undefined)	inactive: 1.74%
COc1ccc(C(=O)NCC2(N3CCCCC3)CCCCC2)cc1	inactive: -7.39%
O=C(NCC1(N2CCCCC2)CCCCC1)c1cccs1	inactive: -12.4%
CCCCn1nnnc1C(CC)N1CCC(n2c(=O)[nH]c3ccccc32)CC1 (centres undefined)	inactive: -4.79%
CCCCn1nnnc1C(c1cccs1)N1CCC(n2c(=O)[nH]c3ccccc32)CC1 (centres undefined)	inactive: 8.27%
O=C(NCC1(N2CCCCC2)CCCCC1)c1ccc(=O)[nH]c1	inactive: -7.34%
Cc1cccc(NC2(C#N)CCN(Cc3ccccc3)CC2)c1	inactive: -4.02%
CSc1ccccc1C(=O)NCC1(N2CCCCC2)CCCCC1	inactive: -17.7%

SMILES	inhibition
O=c1[nH]c2ccccc2n1C1CCN(C(c2ccccc2)c2nnnn2C2CCCCC2)CC1 (centres undefined)	inactive: 3.69%
CCOC(=O)N1CCC(Nc2cccc(C)c2)CC1	inactive: 21.9%
COc1cc(C(=O)NCC2(N(C)C)CCCCC2)ccc1OC(F)F	inactive: -1.45%
O=c1[nH]c2ccccc2n1C1CCN(C(c2cccc3ccccc23)c2nnnn2C2CCCC2)CC1 (centres undefined)	inactive: 29.6%
CC(C)(C)n1nnnc1C(c1ccccc1)N1CCC(n2c(=O)[nH]c3ccccc32)CC1 (centres undefined)	inactive: 9.11%
CCOC(=O)N1CCC(Nc2ccc(F)cc2)CC1	inactive: 17.1%
CCCCOc1ccc(C(=O)NCC2(N3CCOCC3)CCCCC2)cc1	inactive: -3.21%
O=P1(N(CCCl)CCCl)SCCCS1	inactive: -2.07%
CCCCn1nnnc1C(c1cc2ccccc2o1)N1CCC(n2c(=O)[nH]c3ccccc32)CC1 (centres undefined)	inactive: 13.3%
O=C(NCC1(N2CCCCC2)CCCCC1)c1ccc(F)cc1	inactive: -1.68%
O=C(NCC1(N2CCCCC2)CCCCC1)c1cccc(C(F)(F)F)c1	inactive: 5.28%
O=C(NCC1(N2CCOCC2)CCCCC1)c1cc(=O)[nH]c2ccccc12	inactive: 12.5%
COc1cc(C(=O)NCC2(N3CCCCC3)CCCCC2)ccc1OC(F)F	inactive: -26.3%
CC(C)c1ccc(C(=O)NCC2(N3CCOCC3)CCCCC2)cc1	inactive: -25.8%
COc1ccc(NC2CCN(C(=O)OC(C)(C)C)CC2)cc1	inactive: 7.81%
CN1CCN(CCOC(=O)C(O)(c2ccccc2)c2ccccc2)CC1	inactive: 6.87%
CCCCn1nnnc1C(c1cccc2ccccc12)N1CCC(n2c(=O)[nH]c3ccccc32)CC1 (centres undefined)	inactive: 25.4%
O=C(NCC1(N2CCCCC2)CCCCC1)c1ccc(OC(F)F)cc1	inactive: 7.74%
CC(C)(C)n1nnnc1C(c1ccccc1OC(F)(F)F)N1CCC(n2c(=O)[nH]c3ccccc32)CC1 (centres undefined)	inactive: 16.5%
O=c1[nH]c2ccccc2n1C1CCN(C(c2ccccc2OC(F)(F)F)c2nnnn2C2CCCC2)CC1 (centres undefined)	inactive: 22.2%

SMILES	inhibition
CCN1CCC(Nc2ccc(Cl)cc2)CC1	inactive: -1.38%
CSc1ccc(C(=O)NCC2(N3CCOCC3)CCCCC2)cc1	inactive: -33.6%
O=C(NCC1(N2CCCCC2)CCCCC1)c1cccc([N+](=O)[O-])c1	inactive: 8.36%
CN1CCC(Nc2cccc(F)c2)CC1	inactive: -1.43%
O=C(NCC1(N2CCCCC2)CCCCC1)c1cncc(Br)c1	inactive: 13.8%
COc1ccc(C(c2nnnn2C2CCCC2)N2CCC(n3c(=O)[nH]c4ccccc43)CC2)cc1 (centres undefined)	inactive: -1.95%
CCCOc1ccc(C(=O)NCC2(N(C)C)CCCCC2)cc1OC	inactive: -3.63%
Cc1ccc(C(=O)NCC2(N(C)C)CCCCC2)o1	inactive: -8.47%
CC(C)c1ccc(NC2CCN(C(=O)OC(C)(C)C)CC2)cc1	inactive: -55.7%
CN(C)c1cccc(C(=O)NCC2(N3CCCCC3)CCCCC2)c1	inactive: -18.8%
COc1ccc(CN(CCCl)CCCl)cc1Cl	inactive: 4.26%
O=C(NCC1(N2CCOCC2)CCCCC1)c1cc(F)c(F)cc1Cl	inactive: 7.49%
CCC(c1nnnn1C(C)(C)C)N1CCC(n2c(=O)[nH]c3ccccc32)CC1 (centres undefined)	inactive: -17.1%
COc1cc(OC)c(C(=O)NCC2(N(C)C)CCCCC2)cc1OC	inactive: -0.124%
CCCCn1nnnc1C(c1ccnc2ccccc12)N1CCC(n2c(=O)[nH]c3ccccc32)CC1 (centres undefined)	inactive: 5.29%
CCOC(=O)N1CCC(Nc2ccc(C)cc2)CC1	inactive: -3.95%
COc1cccc(C(c2nnnn2C(C)(C)C)N2CCC(n3c(=O)[nH]c4ccccc43)CC2)c1OC (centres undefined)	inactive: 9.73%
O=c1[nH]c2ccccc2n1C1CCN(C(c2cccs2)c2nnnn2C2CCCC2)CC1 (centres undefined)	inactive: 10.8%
O=C(OC1CN2CCC1CC2)C1c2ccccc2C=Cc2ccccc21 (centres undefined)	inactive: -11.8%
